Laboratory results taken from patent US11485700B2, “Synthesis of (+)-cannabinoids and their therapeutic effects” (SYMRISE AG, priority 2018, dated 2022).

Target: CB2 receptor (Homo sapiens (Human), UniProt P34972)
Experiment: In vitro binding to CB2 receptor, [3H]-CP55940 radioligand displacement
Conditions: [3H]-CP55940 0.15 nM, membranes of transfected cells
Description: Compounds with an expected profile as CB1 and/or CB2 receptor ligands were evaluated by competition studies that allow determining the affinity of these compounds (Ki values) for both receptors against a classical cannabinoid ligand. The competition studies were conducted with membranes transfected with either CB1 or CB2 receptors. For stock solutions the compounds were dissolved at concentrations of 50 and 100 mM and stored at −20° C.
96-well plates and the tubes necessary for the experiment were siliconized with Sigmacote (Sigma). Membranes were resuspended in the corresponding buffer and were incubated with the radioligand and each compound for 90 min at 30° C. Non-specific binding was determined with 10 μM WIN55212-2 and 100% binding of the radioligand to the membrane was determined by its incubation with membrane and without any compound. Filtration was performed by a Harvester®filtermate (Perkin-Elmer) with Filtermat A GF/C filters pretreated with polyethylenimine 0.05%. After filtering, the filter was washed nine times with binding buffer, dried and a melt-on scintillation sheet (Meltilex™ A, Perkin Elmer) was melted onto it. Then, radioactivity was quantified by a liquid scintillation spectrophotometer (Wallac MicroBeta Trilux, Perkin-Elmer). […]

Structure (SMILES): C=C(C)[C@H]1CCC(C)=C[C@@H]1c1c(O)cc(CCCCC)cc1O [(+)-CBD, (+)-Cannabidiol]
- Ki: 40.5 nM
